# Apparent affinities of Ab-95 variants for a coronavirus HR2 peptide

From the AlphaSeq antibody data of Engelhart et al. 2022 (doi:10.1038/s41597-022-01779-4), copy in the FLAb collection.

Binding partner: SARS-CoV-2 spike HR2 peptide, sequence PDVDLGDISGINAS.

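In library AAYL52, one, two or three CDR residues were substituted; doubles and triples were drawn at random. Affinity was read by AlphaSeq, a pooled yeast mating assay with surface-displayed partners. Mating (16 h, 30 °C) was followed by selection of diploids and sequencing of their barcodes. Read counts were normalised to the haploid input and turned into Kd by a linear fit to BCL2-family pairs of known affinity, for each replicate. Each pool was mated in three replicate cultures.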

Parent: Ab-95, a human scFv built as VH, a (GGGGS)3 linker, VL. Only the CDRs of the light chain vary.
VH: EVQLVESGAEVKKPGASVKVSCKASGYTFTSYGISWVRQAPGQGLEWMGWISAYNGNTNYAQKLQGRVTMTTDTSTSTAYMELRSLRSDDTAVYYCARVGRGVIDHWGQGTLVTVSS
VL: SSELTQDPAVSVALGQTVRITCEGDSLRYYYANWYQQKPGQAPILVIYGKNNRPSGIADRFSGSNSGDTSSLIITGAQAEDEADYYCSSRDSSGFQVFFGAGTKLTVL

The parent's light chain CDRs are EGDSLRYYYAN, GKNNRPS, SSRDSSGFQVF; each variant's own CDRs replace them letter for letter.
The read-out is the apparent dissociation constant on a log10 scale (nM): the lower, the stronger.
"ND" means that the variant was in the library but no mating with the target was seen in that replicate; the authors take this as a sign of poor binding, and no number exists.

| log10 Kd (nM) by replicate | CDR-L1 | CDR-L2 | CDR-L3 |
|---|---|---|---|
| 3.54 3.10 2.35 | EGDSLRYVYAN | GKNNRPS | SSRKSSGFKVF |
| 4.57 2.92 ND | EGDSLNYYYAN | WKNNRPS | SSRDSSFFQVF |
| 4.36 ND 4.06 | EGTSLRYYYAH | GKNNRPS | SSRPSSGFQVF |
| 2.74 1.76 1.86 | EGDSLRYYYAN | GKNNRPS | SSKDSWGFQHF |
| 2.87 2.74 2.52 | EGDSLRYYYAN | NKNNRPS | SSRDWSGFQVF |
| 3.75 ND 4.30 | DGYSPRYYYAN | GKNNRPS | SSRDSSGFQVF |
| 4.84 4.89 ND | EGDSLRYYYAN | GKNNEPS | SSRDNYGFQVF |
| 1.57 1.40 0.95 | EGNSLRYRYAN | GKNNRPS | SSRDSEGFQVF |
| ND ND ND | EGDSLRYYRAN | GKNNRPA | SSRDSIGFQVF |
| 3.18 3.42 2.90 | EGDSLRYRYAN | GKTNRPS | SERDSSGFQVF |
| 3.85 ND ND | EGDSLRYYYAN | MKNNRPS | LSRDSVGFQVF |
| 3.02 2.64 3.06 | EGDSLRYYYAN | GKNNRPA | SSRDSSYFQVN |
| ND ND ND | EGDSLRYYYEN | GKNNRHS | SSRDSSGFQVF |
| 4.36 3.42 2.50 | EGDSLRYYYAN | GKNNRPS | SSEDSSGFQCF |
| 2.83 3.78 ND | EGYSLSYYYAN | GKNNRPS | SSNDSSGFQVF |
| 2.56 2.53 2.23 | EGDSLRYYIAN | GENNRPS | SSRDSSGFMVF |
| ND 4.04 ND | EDDSLRYYYAN | GKNNRPS | SSRDSWGFQVF |
| 3.76 3.53 2.70 | EGDSLRLYYAN | GKNNRPS | SSRDSSGHSVF |
| 4.55 ND 4.16 | EGDSLIYYVAN | GMNNRPS | SSRDSSGFQVF |
| 5.42 5.58 4.01 | EGDSLCYYYAR | GKNNRPS | SSRDSSGFQVF |
| ND 4.38 4.10 | EGDSLREYYAN | PKNDRPS | SSRDSSGFQVF |
| 4.66 ND ND | EGDSLRYYYVN | GKWNRPS | SSRDCSGFQVF |
| ND ND ND | ETDSYRYYYAN | GKNNRPS | SSRHSSGFQVF |
| 3.69 ND ND | EGDSPRYYYAN | GKNNRPS | SSRDSSGFQTF |
| 3.12 3.87 4.25 | EGDSLRYYYAN | GKNVRYS | SSRDSSGFQVF |
| 1.61 1.70 1.56 | EGDSLRYEYAN | GKNNRPS | SSRDLSGFQPF |
| 3.25 6.04 3.91 | EGDSLPYEYAN | GKFNRPS | SSRDSSGFQVF |
| ND ND ND | EGDSLRYYYAN | CKNNRPS | SSRDSSGFQPF |
| 5.20 ND ND | EGDSLRYYYAN | GKNNRPS | DSRDSSGFQIF |
| 3.25 3.67 3.62 | EGDSLRYYYAN | GLNGHPS | SSRDSSGFQVF |

Extract of 3 entries:

CDR-L1	CDR-L2	CDR-L3	log10 Kd (nM) by replicate
EGDSLRLYYAN	GKNNRPS	SSRDSSGHSVF	3.76 3.53 2.70
DGYSPRYYYAN	GKNNRPS	SSRDSSGFQVF	3.75 ND 4.30
EGDSLRYYYAN	GKNNRPS	SSKDSWGFQHF	2.74 1.76 1.86

Parent in this assay: reference entry 2.31, copy in this library 2.25.
Nonspecific signal, from three strains lacking the peptide, appeared in 28% of pairings of library AAYL52, centred on 3.91 (5% of these signals below 2.90); values are not corrected for it.